# Reference: patent US20160024487
# Key:
# [1] = test system: Lys(Dnp)-ATNATAGPRIVGG-Lys(Abz)
# [2] = test system: Lys(Dnp)-ATNATASPRIVGG-Lys(Abz)
# [3] = test system: Lys(Dnp)-ATNATAVPRIVGG-Lys(Abz)
# [4] = test system: Lys(Dnp)-ATNATDKPRIVGG-Lys(Abz)
# [5] = test system: Lys(Dnp)-ATNATFPPRIVGG-Lys(Abz)
# [6] = test system: Lys(Dnp)-ATNATFQPRIVGG-Lys(Abz)
# [7] = test system: Lys(Dnp)-ATNATFVPRIVGG-Lys(Abz)
# [8] = test system: Lys(Dnp)-ATNATGAPRIVGG-Lys(Abz)
# [9] = test system: Lys(Dnp)-ATNATGHPRIVGG-Lys(Abz)
# [10] = test system: Lys(Dnp)-ATNATHHPRIVGG-Lys(Abz)
# [11] = test system: Lys(Dnp)-ATNATHPPRIVGG-Lys(Abz)
# [12] = test system: Lys(Dnp)-ATNATHRPRIVGG-Lys(Abz)
# [13] = test system: Lys(Dnp)-ATNATLHPRIVGG-Lys(Abz)
# [14] = test system: Lys(Dnp)-ATNATLQPRIVGG-Lys(Abz)
# [15] = test system: Lys(Dnp)-ATNATMFPRIVGG-Lys(Abz)
# [16] = test system: Lys(Dnp)-ATNATNPPRIVGG-Lys(Abz)
# [17] = test system: Lys(Dnp)-ATNATPAPRIVGG-Lys(Abz)
# [18] = test system: Lys(Dnp)-ATNATRPPRIVGG-Lys(Abz)
# [19] = test system: Lys(Dnp)-ATNATSHPRIVGG-Lys(Abz)
# [20] = test system: Lys(Dnp)-ATNATSRPRIVGG-Lys(Abz)
# [21] = test system: Lys(Dnp)-ATNATTFPRIVGG-Lys(Abz)
# [22] = test system: Lys(Dnp)-ATNATTSPRIVGG-Lys(Abz)
# [23] = test system: Lys(Dnp)-ATNATTTPRIVGG-Lys(Abz)
# [24] = test system: Lys(Dnp)-ATNATVMPRIVGG-Lys(Abz)
# [25] = test system: Lys(Dnp)-ATNATWIPRIVGG-Lys(Abz)
# [26] = test system: Lys(Dnp)-ATNATWMPRIVGG-Lys(Abz)
# [27] = test system: Lys(Dnp)-ATNATWPPRIVGG-Lys(Abz)
# [28] = test system: Lys(Dnp)-ATNATWRPRIVGG-Lys(Abz)
# [29] = test system: Lys(Dnp)-ATNATWYPRIVGG-Lys(Abz)
# [30] = test system: Lys(Dnp)-ATNATX4X3PRIVGG-Lys(Abz), X4 = E, X3 = A
# [31] = test system: Lys(Dnp)-ATNATX4X3PRIVGG-Lys(Abz), X4 = E, X3 = H
# [32] = test system: Lys(Dnp)-ATNATX4X3PRIVGG-Lys(Abz), X4 = G, X3 = H
# [33] = test system: Lys(Dnp)-ATNATX4X3PRIVGG-Lys(Abz), X4 = H, X3 = A
# [34] = test system: Lys(Dnp)-ATNATX4X3PRIVGG-Lys(Abz), X4 = P, X3 = P
# [35] = test system: Lys(Dnp)-ATNATX4X3PRIVGG-Lys(Abz), X4 = S, X3 = F
# [36] = test system: Lys(Dnp)-ATNATX4X3PRIVGG-Lys(Abz), X4 = S, X3 = R
# [37] = test system: Lys(Dnp)-ATNATX4X3PRIVGG-Lys(Abz), X4 = T, X3 = F
# [38] = test system: Lys(Dnp)-ATNATX4X3PRIVGG-Lys(Abz), X4 = T, X3 = S
# [39] = test system: Lys(Dnp)-ATNATX4X3PRIVGG-Lys(Abz), X4 = V, X3 = L
# [40] = test system: Lys(Dnp)-ATNATX4X3PRIVGG-Lys(Abz), X4 = Y, X3 = V
# [41] = test system: Lys(Dnp)-ATNATYMPRIVGG-Lys(Abz)
# [42] = test system: Lys(Dnp)-ATNATIDPRIVGG-Lys(Abz)
# [43] = test system: Lys(Dnp)-ATNATKMPRIVGG-Lys(Abz)
substance,measurement,setting,value
Human plasma purified α-thrombin,FIIa kcat/KM,[1],3400 M⁻¹ s⁻¹
same,Functional Selectivity (Specificity*FIIa kcat/KM),[1],810000
same,kcat/KM,[1],3400 M⁻¹ s⁻¹
same,FIIa kcat/KM,[2],9100 M⁻¹ s⁻¹
same,Specificity Ratio (FIIa/FXa),[2],29
same,kcat/KM,[2],9100 M⁻¹ s⁻¹
same,Functional Selectivity (Specificity*FIIa kcat/KM),[3],2.2e+06
same,FIIa kcat/KM,[4],10 M⁻¹ s⁻¹
same,Functional Selectivity (Specificity*FIIa kcat/KM),[4],9.9
same,Specificity Ratio (FIIa/FXa),[4],1
same,FIIa kcat/KM,[5],730 M⁻¹ s⁻¹
same,Specificity Ratio (FIIa/FXa),[5],118
same,kcat/KM,[5],730 M⁻¹ s⁻¹
same,Functional Selectivity (Specificity*FIIa kcat/KM),[6],3.5e+06
same,FIIa kcat/KM,[7],7100 M⁻¹ s⁻¹
same,Functional Selectivity (Specificity*FIIa kcat/KM),[7],700000
same,kcat/KM,[7],7100 M⁻¹ s⁻¹
same,kcat/KM,[8],950 M⁻¹ s⁻¹
same,kcat/KM,[9],1200 M⁻¹ s⁻¹
same,FIIa kcat/KM,[10],2000 M⁻¹ s⁻¹
same,Specificity Ratio (FIIa/FXa),[10],78
same,FIIa kcat/KM,[11],740 M⁻¹ s⁻¹
same,Specificity Ratio (FIIa/FXa),[11],106
same,kcat/KM,[11],740 M⁻¹ s⁻¹
same,kcat/KM,[12],2200 M⁻¹ s⁻¹
same,FIIa kcat/KM,[13],25000 M⁻¹ s⁻¹
same,Functional Selectivity (Specificity*FIIa kcat/KM),[13],1.2e+06
same,kcat/KM,[13],25000 M⁻¹ s⁻¹
same,FIIa kcat/KM,[14],49000 M⁻¹ s⁻¹
same,Functional Selectivity (Specificity*FIIa kcat/KM),[14],2e+06
same,kcat/KM,[14],49000 M⁻¹ s⁻¹
same,FIIa kcat/KM,[15],11000 M⁻¹ s⁻¹
same,Functional Selectivity (Specificity*FIIa kcat/KM),[15],2.1e+06
same,kcat/KM,[15],11000 M⁻¹ s⁻¹
same,FIIa kcat/KM,[16],9 M⁻¹ s⁻¹
same,Functional Selectivity (Specificity*FIIa kcat/KM),[16],27
same,Specificity Ratio (FIIa/FXa),[16],3
same,FIIa kcat/KM,[17],7000 M⁻¹ s⁻¹
same,Specificity Ratio (FIIa/FXa),[17],40
same,FIIa kcat/KM,[18],2800 M⁻¹ s⁻¹
same,Functional Selectivity (Specificity*FIIa kcat/KM),[18],1.1e+06
same,kcat/KM,[18],2800 M⁻¹ s⁻¹
same,kcat/KM,[19],1100 M⁻¹ s⁻¹
same,kcat/KM,[20],2300 M⁻¹ s⁻¹
same,kcat/KM,[21],640 M⁻¹ s⁻¹
same,kcat/KM,[22],890 M⁻¹ s⁻¹
same,FIIa kcat/KM,[23],1300 M⁻¹ s⁻¹
same,Specificity Ratio (FIIa/FXa),[23],74
same,kcat/KM,[23],1300 M⁻¹ s⁻¹
same,FIIa kcat/KM,[24],15000 M⁻¹ s⁻¹
same,Functional Selectivity (Specificity*FIIa kcat/KM),[24],810000
same,kcat/KM,[24],15000 M⁻¹ s⁻¹
same,kcat/KM,[25],1900 M⁻¹ s⁻¹
same,FIIa kcat/KM,[26],7200 M⁻¹ s⁻¹
same,Specificity Ratio (FIIa/FXa),[26],37
same,kcat/KM,[26],7200 M⁻¹ s⁻¹
same,Functional Selectivity (Specificity*FIIa kcat/KM),[27],5.6e+06
same,FIIa kcat/KM,[28],23000 M⁻¹ s⁻¹
same,Functional Selectivity (Specificity*FIIa kcat/KM),[28],640000
same,kcat/KM,[28],23000 M⁻¹ s⁻¹
same,FIIa kcat/KM,[29],4300 M⁻¹ s⁻¹
same,Specificity Ratio (FIIa/FXa),[29],73
same,kcat/KM,[29],4300 M⁻¹ s⁻¹
same,FIIa kcat/KM,[30],400 M⁻¹ s⁻¹
same,Specificity Ratio (FIIa/FXa),[30],92
same,FIIa kcat/KM,[31],690 M⁻¹ s⁻¹
same,Specificity Ratio (FIIa/FXa),[31],89
same,FIIa kcat/KM,[32],1200 M⁻¹ s⁻¹
same,Specificity Ratio (FIIa/FXa),[32],21
same,FIIa kcat/KM,[33],960 M⁻¹ s⁻¹
same,Specificity Ratio (FIIa/FXa),[33],18
same,FIIa kcat/KM,[34],850 M⁻¹ s⁻¹
same,Specificity Ratio (FIIa/FXa),[34],63
same,FIIa kcat/KM,[35],940 M⁻¹ s⁻¹
same,Specificity Ratio (FIIa/FXa),[35],57
same,FIIa kcat/KM,[36],2300 M⁻¹ s⁻¹
same,Specificity Ratio (FIIa/FXa),[36],18
same,FIIa kcat/KM,[37],640 M⁻¹ s⁻¹
same,Specificity Ratio (FIIa/FXa),[37],29
same,FIIa kcat/KM,[38],890 M⁻¹ s⁻¹
same,Specificity Ratio (FIIa/FXa),[38],56
same,FIIa kcat/KM,[39],5000 M⁻¹ s⁻¹
same,Specificity Ratio (FIIa/FXa),[39],15
same,FIIa kcat/KM,[40],1700 M⁻¹ s⁻¹
same,Specificity Ratio (FIIa/FXa),[40],35
same,FIIa kcat/KM,[41],4300 M⁻¹ s⁻¹
same,Specificity Ratio (FIIa/FXa),[41],27
same,kcat/KM,[41],4300 M⁻¹ s⁻¹
Human plasma purified alpha-thrombin,FIIa kcat/KM,[42],2000 M⁻¹ s⁻¹
same,Specificity Ratio (FIIa/FXa),[42],1
same,FIIa kcat/KM,[43],800 M⁻¹ s⁻¹
same,Specificity Ratio (FIIa/FXa),[43],6
